Test results taken from paper PMC11269945, “HTRF-based assay for detection of mono-ADP-ribosyl hydrolyzing macrodomains and inhibitor screening” (iScience, 2024).

Amino acid sequences for entries named in this document (tags omitted). Residues count along the entry.
UniProt P0C6X1, 1270-1437 limits assumed: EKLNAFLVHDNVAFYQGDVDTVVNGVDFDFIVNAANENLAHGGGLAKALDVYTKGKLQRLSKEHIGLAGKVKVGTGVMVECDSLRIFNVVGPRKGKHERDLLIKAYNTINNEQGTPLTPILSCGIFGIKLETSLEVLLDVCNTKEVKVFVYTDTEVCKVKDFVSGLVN

Molecular target: HCoV-229e macrodomain (Human coronavirus 229E, UniProt P0C6X1)
Experiment: DeMAR HTRF deMARylation assay, wash protocol
Assay type: biochemical
Conditions: read-out: IC50 HCoV-229e; wash setup, 2 h, 80 nM macrodomain, 6 nM immobilized Tb-PARP10cat

O=C(Nc1ccccc1)Nc1ccc(C(=O)NC2c3cccc(O)c3CC2C(=O)O)cc1 (stereo not shown) [Z8539_0023]
IC50: > 667 µM
